The values below are quoted from earlier work in patent EP1148783B1, “CONVERTING COX INHIBITION COMPOUNDS THAT ARE NOT COX-2 SELECTIVE INHIBITORS TO DERIVATIVES THAT ARE COX-2 SELECTIVE INHIBITORS” (priority 1999, dated 2000).

The chains behind the UniProt entries cited, without tags or fusion partners. Residues count along the entry.
UniProt P23219, 24-599: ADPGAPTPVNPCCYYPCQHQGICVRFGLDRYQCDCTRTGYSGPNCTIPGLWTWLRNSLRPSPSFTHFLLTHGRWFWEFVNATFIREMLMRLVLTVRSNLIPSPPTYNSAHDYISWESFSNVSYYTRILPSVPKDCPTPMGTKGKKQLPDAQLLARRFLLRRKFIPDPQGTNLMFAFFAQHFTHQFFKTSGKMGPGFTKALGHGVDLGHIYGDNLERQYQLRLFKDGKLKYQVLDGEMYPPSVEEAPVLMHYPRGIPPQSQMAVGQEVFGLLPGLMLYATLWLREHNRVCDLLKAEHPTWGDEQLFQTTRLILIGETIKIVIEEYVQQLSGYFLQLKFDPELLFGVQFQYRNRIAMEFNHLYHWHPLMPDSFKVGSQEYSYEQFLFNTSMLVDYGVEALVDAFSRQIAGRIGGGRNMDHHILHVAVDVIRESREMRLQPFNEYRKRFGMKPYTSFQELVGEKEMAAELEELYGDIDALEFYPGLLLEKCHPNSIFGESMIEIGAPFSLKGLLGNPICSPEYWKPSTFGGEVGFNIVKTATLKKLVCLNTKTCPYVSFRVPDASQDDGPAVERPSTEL

For this data set, the target named is COX-1 (Homo sapiens, UniProt P23219). Particulars: background statement; cited from earlier work.

`CSc1ccc(/C=C2/C(C)=C(CC(=O)O)c3cc(F)ccc32)cc1` [sulindac sulfide]: the “fold more potent inhibitor against COX-1 than against COX-2” value was 40 fold.
